Binding of CDR-mutated scFvs to a peptide of the spike HR2 region

Values reported by Li et al. 2023, doi:10.1038/s41467-023-39022-2 (FLAb copy).

Antigen: PDVDLGDISGINAS, a 14-residue peptide of the SARS-CoV-2 spike HR2 region.

Ab-14 is the parent antibody, in scFv form: VH, then a 15-residue (Gly4Ser)3 linker, then VL. The heavy chain is unchanged in all variants.
VH: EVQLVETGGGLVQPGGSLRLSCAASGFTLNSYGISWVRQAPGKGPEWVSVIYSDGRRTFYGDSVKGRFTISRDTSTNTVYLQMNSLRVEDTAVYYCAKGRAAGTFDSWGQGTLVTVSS
VL: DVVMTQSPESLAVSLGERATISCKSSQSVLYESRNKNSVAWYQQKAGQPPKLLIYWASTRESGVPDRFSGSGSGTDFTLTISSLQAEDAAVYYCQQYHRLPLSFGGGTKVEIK

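The parent was found by panning a naive human phage display library on the peptide. This is the validation round: designs drawn from the data on random variants, tested in the same kind of assay. Their group label is 14L_En_Gibbs (En: ensemble of fine-tuned language models; Gibbs: Gibbs sampling). The assay is AlphaSeq: two haploid yeast populations carry antibody and antigen on their surface. After mating in shaken culture at 30 °C for 16 h, diploids were selected and their barcode pairs sequenced. The ratio of observed to expected reads was calibrated, replicate by replicate, on BCL2-family standards whose Kd was known from biolayer interferometry. There are six technical replicates.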

Variants are written as CDR1, CDR2 and CDR3 of the light chain (limits as in the source). Parent: KSSQSVLYESRNKNSVA, WASTRES, QQYHRLPLS. Numbers give log10(Kd / nM), so 0 is 1 nM and 3 is 1 µM. Smaller is tighter. Where no diploid with the target was found in that replicate, the entry reads "nd": below detection, most likely a poor binder, though not proof of it. A sequence measured in both rounds can read differently, since the two assays cover different ranges.

MITGAMELEWSNKNPVA, SATDRAP, QSYFRLPLM: 2.08, -0.03, 1.09, 0.65, 0.35, 1.22 (controls 0 of 18).
VLMGQGADSIQHANSIA, NVDLVDM, QQYAHLPLS: nd, 3.02, 2.64, nd, 2.63, nd (controls 0 of 18).
HVELGTGGVQKYDSSVA, HASQRQE, QQYYQLPLT: 0.79, 0.44, 0.21, 0.09, 0.10, 0.42 (controls 1 of 18).
KITDKFLTEGNGRQNIA, HAMVAYE, QQYQQLPLA: 1.09, 0.94, 0.52, 0.44, 0.50, 0.83 (controls 2 of 18).
KISYLDYRGSQGHNNIA, EGSQRAE, QQYIRLPLN: 0.16, 0.37, 0.17, 0.33, 0.14, 0.34 (controls 2 of 18).
NLGGLDFNSTYGMKAVA, DVSEVGE, QHYSRLPLS: 1.75, 1.52, 1.95, 1.70, 1.92, 1.96 (controls 1 of 18).
NMNVGANFGKNQEQAIA, DVEDRES, QQYARLPLT: 0.56, 0.42, 0.07, 0.05, -0.16, 0.52 (controls 1 of 18).
SMSNAQINPDVWKNSIA, DAEHVEY, QQYSRLPLT: 0.41, 0.27, 0.29, 0.11, 0.51, 0.52 (controls 0 of 18).
RIQMQFTWPGNARQNVA, EIQKAID, QQYAHLPLS: nd, 2.39, 1.48, nd, nd, nd (controls 0 of 18).
VFSGLFQGDEQQYNSIA, EASLSNT, QQYISLPLS: nd, nd, 1.39, nd, nd, nd (controls 0 of 18).
TGNVELAQGVHEMNNVA, DGDQKLD, QQYYRLPLA: 0.49, 0.26, 0.45, 0.22, 0.22, 0.47 (controls 1 of 18).
HLNGEWNHGANRDNNIA, EAQLVAA, QDYFRLPFI: 0.89, 1.06, 0.95, 0.83, 0.73, 1.09 (controls 1 of 18).
NLVEMEGTNQTKMGNIA, SVDQRMD, QQYQRLPLI: 0.99, 0.30, 0.43, 0.86, 0.28, 0.57 (controls 1 of 18).
KLMQNKVHGATRQYNIA, ETTLVGQ, QQYFHLPFI: 2.61, 1.52, 2.39, 1.32, nd, 1.75 (controls 0 of 18).
SLQDMERIMNSHEQAIA, DGTESAR, QQYFQLPLH: 0.52, 0.72, 0.59, 0.42, 0.67, 0.59 (controls 0 of 18).
HLHTIMYTEGIGTNSIA, DANLHVD, QQYFRLPIS: 0.87, 0.66, 0.49, 0.33, 0.41, 0.61 (controls 1 of 18).
MVLKEDFQELAAKNAVA, NASEKET, QHYARLPLV: 1.64, 1.67, 1.28, 2.02, 2.29, 1.29 (controls 0 of 18).
KLVGVSDNDRNPSHNIA, DVSMLDN, QQYHRLPLD: 1.49, 1.29, 1.11, 1.33, 1.70, 1.15 (controls 1 of 18).
ILEENSDDITEQGNSIA, ETNMVRS, QQYHRLPLA: nd, 1.97, nd, 1.70, 3.67, 1.66 (controls 0 of 18).
HTQHLGFGDPYHWNNVA, EVSQVCS, QQYARLPLT: 1.28, 1.12, 1.33, 0.71, 2.30, 1.91 (controls 0 of 18).
AVVKMKSEGDYHAGNVA, NANLRSD, QQYYRLPLI: 0.17, 0.39, 0.17, 0.26, 0.14, 0.31 (controls 1 of 18).
HVEHASLESNATMNSVA, NEACLAD, QQYHRLPLA: 0.55, 0.66, 0.64, 0.36, 0.43, 0.51 (controls 3 of 18).
SLEPFEQQIMKDLNNIA, NTQVRAT, QQYMRLPFM: 0.28, 0.48, 0.31, 0.34, 0.48, 0.42 (controls 1 of 18).
HLSKPWELGHPSTNAVA, NNDVAMA, QQYSRLPLS: 0.27, 0.24, 0.17, -0.12, 0.13, 0.25 (controls 1 of 18).
KIDSQYQHGTDQKKAMA, DSSVRTQ, QQYSRLPLS: 0.27, 0.14, -0.11, -0.18, -0.23, 0.06 (controls 2 of 18).
RIAEQYFEYMHNINNVA, ETECKAY, QQYAHLPLL: 1.11, 1.05, 0.98, 0.05, 0.65, 1.19 (controls 0 of 18).
QLENVQSNDTILENNVA, HAEVSGR, QQYSQLPLI: nd, nd, 2.70, 2.36, nd, 2.61 (controls 2 of 18).
KIDSQYQHGTNQKKAMA, DSSVSTQ, QQYSRLPLS: 0.01, 0.11, 0.38, 0.36, 0.18, 0.54 (controls 1 of 18).
HVSGLYTDESVRGYNIA, ETSHVEE, QQYERLPLI: 1.58, 0.51, 0.83, 0.84, -0.03, 0.97 (controls 0 of 18).
KLHAYTLGEKSANSSIA, EKSYRAI, QQYGRLPLC: 1.89, 2.03, 0.84, 1.58, 1.97, 1.68 (controls 2 of 18).
RLNVFQNVSTQQNNNIA, QAEQKVH, QQYMRLPLY: 0.24, 0.16, -0.06, -0.08, -0.13, 0.08 (controls 0 of 18).
KLSLSMSYSEEGTRHIA, NGSNRCH, QQYHRLPLI: 0.31, 0.57, 0.67, 0.50, 0.51, 0.84 (controls 0 of 18).
KVAERYEMGENFQSSIA, SGAHKVH, QQYHRLPLG: nd, 1.59, nd, 1.57, 2.67, 2.80 (controls 0 of 18).
RVSSHLMAGGIHYNNIA, NTKVLEY, QQYMRLPLG: -0.24, -0.15, -0.41, -0.35, -0.36, -0.45 (controls 0 of 18).
AHDHTMDSGKQAPNSIA, NAEQKTI, QQYQRLPLS: 0.93, 0.69, 0.55, 0.31, 0.68, 0.90 (controls 0 of 18).
RYQMDDIEGKGARNNIA, DGAEVYR, QQYARLPLT: 0.15, 0.42, 0.13, 0.09, 0.42, 0.14 (controls 0 of 18).
HIGDMLFGDHKIAHSIA, NTGVTSR, QQYSRLPLI: 0.73, 0.89, 0.71, 0.70, 0.71, 0.73 (controls 0 of 18).
NIEGVEFEMAMHGNSVA, GVDLREA, QQYFRLPLH: 0.60, 0.17, 0.50, 0.45, 0.81, 0.62 (controls 0 of 18).
KLAMALSEEFGTYHGVA, DADHRMH, QQYNRLPLS: 0.27, 0.40, 0.67, 0.12, 0.11, 0.26 (controls 0 of 18).
QIFFNDFEYGIESQNIA, QGSMREV, QQYARLPLV: 0.49, 0.09, 0.15, 0.18, 0.17, 0.34 (controls 1 of 18).
SVHFYGTTGEQNWESIA, ENSIRVE, QQYSHLPLL: 1.62, 1.52, 1.76, 1.88, 1.22, 1.83 (controls 1 of 18).
SLDHDVGYDTHNDKNIA, AETRVDR, QQYAHLPLS: 1.47, 1.27, 0.74, 0.90, 0.97, 1.37 (controls 1 of 18).
NLKENNVDNQTFYSNIA, EADQREK, QQYYRLPLQ: 3.89, 2.64, 2.26, 1.99, 2.35, 2.01 (controls 0 of 18).
NMKVGLNFEDIQHQAIA, SVDERES, QQYMRLPLT: 0.59, 0.49, 0.96, 0.35, 0.60, 0.82 (controls 1 of 18).
RITILSDYYLENRNAIA, ETSLKAH, QQYFMLPLT: 1.66, 0.61, 0.55, 0.68, 0.33, 0.65 (controls 0 of 18).
KFYSAWSGEENNNNNIA, SADTLNH, QQYWTLPLS: -0.28, -0.10, -0.51, -0.42, -0.55, -0.31 (controls 0 of 18).
QIAMEMYHGLNDNQNIA, DAMTYEK, QQYSRLPLF: nd, nd, nd, nd, nd, nd (controls 1 of 18).
HMMSGSVEQWNIENAVA, EMSEVYR, QQYVSLPLS: nd, nd, nd, nd, nd, nd (controls 0 of 18).
NLSWKLSGFENEWMAVA, NTSERNA, QQYARLPLS: 0.74, 0.86, 0.95, 0.94, 0.86, 0.78 (controls 0 of 18).
RLRNSWNGWYNDWASIA, DANMYAP, QQYQRLPLA: 1.70, 1.92, 1.57, 1.46, 2.18, 1.79 (controls 4 of 18).
MIEIIQDGYMEMRSAVA, DTSLVRM, QQYARLPLM: nd, nd, nd, nd, nd, nd (controls 0 of 18).

A selection of 6 entries from above:

{"CDR-L1": "SMSNAQINPDVWKNSIA", "CDR-L2": "DAEHVEY", "CDR-L3": "QQYSRLPLT", "replicates, log10 nM": "0.41, 0.27, 0.29, 0.11, 0.51, 0.52", "empty controls": "0 of 18"}
{"CDR-L1": "VLMGQGADSIQHANSIA", "CDR-L2": "NVDLVDM", "CDR-L3": "QQYAHLPLS", "replicates, log10 nM": "nd, 3.02, 2.64, nd, 2.63, nd", "empty controls": "0 of 18"}
{"CDR-L1": "NLKENNVDNQTFYSNIA", "CDR-L2": "EADQREK", "CDR-L3": "QQYYRLPLQ", "replicates, log10 nM": "3.89, 2.64, 2.26, 1.99, 2.35, 2.01", "empty controls": "0 of 18"}
{"CDR-L1": "HMMSGSVEQWNIENAVA", "CDR-L2": "EMSEVYR", "CDR-L3": "QQYVSLPLS", "replicates, log10 nM": "nd, nd, nd, nd, nd, nd", "empty controls": "0 of 18"}
{"CDR-L1": "KISYLDYRGSQGHNNIA", "CDR-L2": "EGSQRAE", "CDR-L3": "QQYIRLPLN", "replicates, log10 nM": "0.16, 0.37, 0.17, 0.33, 0.14, 0.34", "empty controls": "2 of 18"}
{"CDR-L1": "QLENVQSNDTILENNVA", "CDR-L2": "HAEVSGR", "CDR-L3": "QQYSQLPLI", "replicates, log10 nM": "nd, nd, 2.70, 2.36, nd, 2.61", "empty controls": "2 of 18"}

The authors' rule: three or more of the six replicates give a measured affinity, fewer mean a poor binder. Nonspecific signal, from three strains lacking the peptide, appeared in 4% of pairings of all light chain designs, centred on 2.64 (5% of these signals below 1.59); values are not corrected for it. The control count says in how many pairings with the empty strains this scFv gave a signal.